Assay results from ChEMBL document CHEMBL1144945, “Development of progesterone receptor antagonists from 1,2-dihydrochromeno[3,4-f]quinoline agonist pharmacophore” (Bioorg Med Chem Lett, 2003).

Molecular target: T1, Progesterone receptor (Homo sapiens, UniProt P06401)
T1 sequence (P06401 whole entry): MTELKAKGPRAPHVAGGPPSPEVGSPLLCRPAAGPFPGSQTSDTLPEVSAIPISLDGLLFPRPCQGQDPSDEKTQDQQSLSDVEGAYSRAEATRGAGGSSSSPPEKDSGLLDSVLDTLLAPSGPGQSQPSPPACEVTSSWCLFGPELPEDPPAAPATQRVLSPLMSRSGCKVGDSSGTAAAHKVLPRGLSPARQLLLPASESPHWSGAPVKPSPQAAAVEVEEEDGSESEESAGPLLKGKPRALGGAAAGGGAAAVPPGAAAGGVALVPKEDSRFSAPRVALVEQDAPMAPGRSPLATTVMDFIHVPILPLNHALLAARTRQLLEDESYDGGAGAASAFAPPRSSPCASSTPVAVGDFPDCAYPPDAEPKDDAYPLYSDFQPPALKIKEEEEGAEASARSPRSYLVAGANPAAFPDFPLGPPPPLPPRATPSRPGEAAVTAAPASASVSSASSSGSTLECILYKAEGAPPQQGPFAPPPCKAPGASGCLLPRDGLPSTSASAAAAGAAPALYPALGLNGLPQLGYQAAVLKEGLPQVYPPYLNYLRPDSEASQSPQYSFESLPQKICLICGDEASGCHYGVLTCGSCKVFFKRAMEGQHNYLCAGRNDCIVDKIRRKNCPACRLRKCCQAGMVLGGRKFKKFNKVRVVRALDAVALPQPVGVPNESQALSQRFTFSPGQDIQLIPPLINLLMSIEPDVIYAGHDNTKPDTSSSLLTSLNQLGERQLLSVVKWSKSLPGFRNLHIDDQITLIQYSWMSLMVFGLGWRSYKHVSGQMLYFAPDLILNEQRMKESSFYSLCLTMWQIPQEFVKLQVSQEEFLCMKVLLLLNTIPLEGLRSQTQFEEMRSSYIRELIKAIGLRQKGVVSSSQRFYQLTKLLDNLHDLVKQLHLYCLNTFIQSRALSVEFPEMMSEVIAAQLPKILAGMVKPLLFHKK
Test: Effective concentration for human progesterone receptor in T47D human breast cancer cell; not active (<20% efficacy and/or >10 mM potency)
Details: cancer cell lines

Which EC50 does the source give for `CC#C[C@]1(O)CC[C@H]2[C@@H]3CCC4=CC(=O)CCC4=C3[C@@H](c3ccc(N(C)C)cc3)C[C@@]21C` [MIFEPRISTONE] here?
The EC50 was “Not Active”.
